Experiment: Therapeutic index, ratio of CC50 for Cytotoxicity against sheep erythrocytes to MIC for antibacterial activity against methicillin resistant Staphylococcus aureus FPR3757
Format: toxicity
In short: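 Ratio of erythrocyte CC50 to MRSA FPR3757 MIC. For hemolysis, 4% washed sheep erythrocytes were mixed 1:1 with twofold compound dilutions in PBS and incubated 1 h at 37 °C. Supernatant A540 was read after centrifugation and normalized between DMSO and Triton X-100 (100% lysis). Triplicates. Highest concentration tested: 32 μg/mL.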

Structure (SMILES): O=c1cc(C(F)(F)F)[nH]c2cc(C(F)(F)F)cc(Nc3ccc(C(F)(F)F)cn3)c12
- selectivity ratio: > 500

— ChEMBL document CHEMBL5150021, “Identification of 5-(Aryl/Heteroaryl)amino-4-quinolones as Potent Membrane-Disrupting Agents to Combat Antibiotic-Resistant Gram-Positive Bacteria” (J Med Chem, 2022)
